{
  "source": "patent US20060009478A1",
  "about": "“Methods for the treatment of back pain” (priority 2003, published 2006)",
  "test_system": "patients with moderate to severe chronic pain due to osteoarthritis of the hip or knee",
  "settings": "Week 3; 40 mg OXY/d",
  "data": [
    {"smiles": "COc1ccc2c3c1O[C@H]1C(=O)CC[C@@]4(O)[C@@H](C2)N(C)CC[C@]314", "note": "[OXY QID, oxycodone]", "values": [
      {"measurement": "Adverse event Nausea, % of patients", "result": 10.7, "unit": "%"}
    ]}
  ]
}
